target: FLAG-tagged PDE2A1 (amino acids 2-941) (Homo sapiens (Human), UniProt O00408); assay: IMAP TR-FRET PDE2A phosphodiesterase enzymatic assay; settings: not given

Sequences of proteins named here, by UniProt entry; tags and fusion partners are left off. Residues count along the entry.
UniProt O00408, 2-941: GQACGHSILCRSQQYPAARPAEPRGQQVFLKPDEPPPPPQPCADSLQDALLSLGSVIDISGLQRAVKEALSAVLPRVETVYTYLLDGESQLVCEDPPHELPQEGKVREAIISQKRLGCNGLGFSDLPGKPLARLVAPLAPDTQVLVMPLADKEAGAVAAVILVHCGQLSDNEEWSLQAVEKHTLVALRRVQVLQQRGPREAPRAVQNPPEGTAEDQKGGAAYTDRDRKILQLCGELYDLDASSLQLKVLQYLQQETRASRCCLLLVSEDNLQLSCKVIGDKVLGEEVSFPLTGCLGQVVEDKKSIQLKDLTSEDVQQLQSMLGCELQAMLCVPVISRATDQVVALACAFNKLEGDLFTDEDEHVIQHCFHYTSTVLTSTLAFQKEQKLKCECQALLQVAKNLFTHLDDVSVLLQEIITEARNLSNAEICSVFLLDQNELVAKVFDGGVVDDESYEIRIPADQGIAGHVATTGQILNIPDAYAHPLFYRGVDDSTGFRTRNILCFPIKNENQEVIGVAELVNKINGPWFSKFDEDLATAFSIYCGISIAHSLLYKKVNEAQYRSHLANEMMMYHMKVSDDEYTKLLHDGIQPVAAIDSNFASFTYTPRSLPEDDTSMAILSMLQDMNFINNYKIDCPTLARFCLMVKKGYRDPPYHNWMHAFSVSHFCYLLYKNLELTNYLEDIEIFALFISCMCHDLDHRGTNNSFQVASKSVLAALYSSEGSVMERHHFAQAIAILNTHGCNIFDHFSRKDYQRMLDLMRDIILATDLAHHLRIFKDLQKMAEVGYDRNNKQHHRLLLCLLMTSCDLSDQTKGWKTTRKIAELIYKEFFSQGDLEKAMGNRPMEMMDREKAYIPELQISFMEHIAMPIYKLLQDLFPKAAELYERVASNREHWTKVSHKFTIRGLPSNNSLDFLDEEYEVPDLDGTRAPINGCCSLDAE

| SMILES | IC50 [nM] |
| --- | --- |
| COc1ccc(CN2CCCC(c3cc(C)nc4ncnn34)C2)cc1Br (stereo not drawn) [Example 170, 1-[(3-Bromo-4-methoxyphenyl)methyl]-3-{5-methyl-[1,2,4]triazolo[1,5-a]pyrimidin-7-yl}piperidine] | 100 to 1000 |
| Cc1cc(C2CN(C(=O)c3ccc4c(c3)CCO4)CCO2)n2ncnc2n1 (stereo not drawn) [Example 360, 4-[(2,3-Dihydro-1-benzofuran-5-yl)carbonyl]-2-{5-methyl-[1,2,4]triazolo[1,5-a]pyrimidin-7-yl}morpholine] | 100 to 1000 |
| Cc1cc(C2CCCN(Cc3ncc(Br)cn3)C2)n2ncnc2n1 (stereo not drawn) [Example 138, 5-Bromo-2-[(3-{5-methyl-[1,2,4]triazolo[1,5-a]pyrimidin-7-yl}piperidin-1-yl)methyl]pyrimidine] | 1000 to 10000 |
| Cc1cc(C2CN(C(=O)c3cccc(C(C)C)c3)CC(F)(F)C2)n2ncnc2n1 (stereo not drawn) [Example 531, 3,3-Difluoro-5-{5-methyl-[1,2,4]triazolo[1,5-a]pyrimidin-7-yl}-1-[3-(propan-2-yl)benzoyl]piperidine] | 100 to 1000 |
| Cc1cc(C2CCCN(Cc3ccc(Br)c(C)n3)C2)n2ncnc2n1 (stereo not drawn) [Example 137, 3-Bromo-2-methyl-6-[(3-{5-methyl-[1,2,4]triazolo[1,5-a]pyrimidin-7-yl}piperidin-1-yl)methyl]pyridine] | 100 to 1000 |
| Cc1cc(C2CCCN(C(=O)c3cnn(C(C)C)c3)C2)n2ncnc2n1 (stereo not drawn) [Example 435, 3-{5-Methyl-[1,2,4]triazolo[1,5-a]pyrimidin-7-yl}-1-{[1-(propan-2-yl)-1H-pyrazol-4-yl]carbonyl}piperidine] | 100 to 1000 |
| Cc1cc(C2CCCN(Cc3ccc(CC(C)C)cc3)C2)n2ncnc2n1 (stereo not drawn) [Example 149, 3-{5-Methyl-[1,2,4]triazolo[1,5-a]pyrimidin-7-yl}-1-{[4-(2-methylpropyl)phenyl]methyl}piperidine] | 1000 to 10000 |
| Cc1cc(C2CCCN(C(=O)c3ccc(C(C)C)cc3)C2)n2ncnc2n1 (stereo not drawn) [Example 458, 3-{5-Methyl-[1,2,4]triazolo[1,5-a]pyrimidin-7-yl}-1-{[4-(propan-2-yl)phenyl]carbonyl}piperidine] | 100 to 1000 |
| Cc1cc(C2CN(C(=O)c3cnc4ccccc4n3)CCO2)n2ncnc2n1 (stereo not drawn) [Example 540, 2-(2-{5-Methyl-[1,2,4]triazolo[1,5-a]pyrimidin-7-yl}morpholine-4-carbonyl)quinoxaline] | 100 to 1000 |
| Cc1cc([C@@H]2CN(C(=O)c3cc(Cl)c(F)c(Cl)c3)CCO2)n2ncnc2n1 [Example 371, (2S)-4-(3,5-Dichloro-4-fluorobenzoyl)-2-{5-methyl-[1,2,4]triazolo[1,5-a]pyrimidin-7-yl}morpholine] | 100 to 1000 |
| Cc1cc(C2CCCN(Cc3csc(Br)n3)C2)n2ncnc2n1 (stereo not drawn) [Example 199, 1-[(2-Bromo-1,3-thiazol-4-yl)methyl]-3-{5-methyl-[1,2,4]triazolo[1,5-a]pyrimidin-7-yl}piperidine] | 1000 to 10000 |

same assay, conditions: IMAP TR-FRET, 200 nM FAM-cAMP substrate, 11-point half-log dose-response

| SMILES | PDE2 (pIC50) |
| --- | --- |
| Cc1cc(C2CN(C(=O)c3ccc4sccc4c3)CCO2)n2ncnc2n1 (stereo not drawn) [Example 535, 4-(1-Benzothiophene-5-carbonyl)-2-{5-methyl-[1,2,4]triazolo[1,5-a]pyrimidin-7-yl}morpholine] | >7 |
| Cc1cc(C2CN(C(=O)c3ccc4ccccc4c3)CCO2)n2ncnc2n1 (stereo not drawn) [Example 210, 2-{5-Methyl-[1,2,4]triazolo[1,5-a]pyrimidin-7-yl}-4-[(naphthalen-2-yl)carbonyl]morpholine] | >7 |
| Cc1cc([C@@H]2CN(C(=O)c3cc(Br)cc(Br)c3)CCO2)n2ncnc2n1 [Example 273, (2S)-4-(3,5-Dibromobenzoyl)-2-{5-methyl-[1,2,4]triazolo[1,5-a]pyrimidin-7-yl}morpholine] | >7 |
| Cc1cc(C2CCCN(C(=O)c3cnn(-c4ccccc4)c3)C2)n2ncnc2n1 (stereo not drawn) [Example 439, 3-{5-Methyl-[1,2,4]triazolo[1,5-a]pyrimidin-7-yl}-1-[(1-phenyl-1H-pyrazol-4-yl)carbonyl]piperidine] | >7 |
